Results on one substance are retold here after PMC2946321 (2010).

Chains of the proteins cited; added tags and fusions are not shown.
UniProt P21917, whole entry: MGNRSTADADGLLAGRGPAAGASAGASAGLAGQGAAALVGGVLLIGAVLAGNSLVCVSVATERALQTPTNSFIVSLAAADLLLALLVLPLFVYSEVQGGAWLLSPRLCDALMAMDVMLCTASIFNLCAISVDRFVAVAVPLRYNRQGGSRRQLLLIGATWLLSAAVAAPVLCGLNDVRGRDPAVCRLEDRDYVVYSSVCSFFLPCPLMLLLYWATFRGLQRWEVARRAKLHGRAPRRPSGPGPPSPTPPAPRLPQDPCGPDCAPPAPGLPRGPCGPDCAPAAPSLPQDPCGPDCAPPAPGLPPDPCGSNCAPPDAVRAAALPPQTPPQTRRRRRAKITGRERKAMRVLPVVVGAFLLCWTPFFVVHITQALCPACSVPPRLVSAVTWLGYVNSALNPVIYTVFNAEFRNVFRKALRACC

In this test the target is human D4 (Homo sapiens, UniProt P21917). Description: Competitive radioligand binding, 125I-IABN, D4 dopamine receptors. The note with it: read-out: Ki D4.

The Ki is a measure of affinity in units of concentration, obtained from inhibition or displacement.

Consider “1-(Benzo[b]thiophen-2-ylmethyl)-4-(4-bromophenyl)piperidin-4-ol oxalate [Compound 20]”, for which the Ki turned out to be 377 ± 47 nM.
